Assay results taken from patent EP4088722A1, “PHARMACEUTICAL COMPOSITIONS, USES THEREOF AND METHODS FOR TREATMENT OF GENETIC DISEASES CAUSED BY INTRONIC SPLICE-ACCEPTOR SITE MUTATIONS” (priority 2021, dated 2022).

What was measured:
[1] = test system: AGA minigene containing the splice variant (c.128-2A>G); assay: AGA minigene luciferase splicing assay in AGA knockout HEK293T cells; conditions: 24 h
[2] = test system: TPP1 minigene with the mutation c.509-1G>C; assay: TPP1 minigene luciferase splicing assay in HEK293T cells; type: cell-based, human; conditions: overall statement in the description
Excerpt: Due to the encouraging data obtained with our AGU splice-site variant, we constructed a TPP1 luciferase minigene that contains exons 5, 6 and 7 together with the introns 5 and 6 (Figure 11a) and the firefly luciferase coding region. The splice-site variant -1G>C was introduced at the end of intron 5. Upon exclusion of exon 6, which is the most likely alteration, no luciferase activity is observed due to the frameshift and premature stop codon. Other altered splicing products are possible, but they would not result in a luciferase signal. If the splicing can be corrected, and exon 6 is included, luciferase activity can be measured (Figure 11a).

[3] = test system: AGA minigene construct without luciferase (c.128-2A>G); type: cell-based, human; conditions: 25 µM luteolin or 50 µM kinetin, 24 h, qPCR-based minigene assay
Description: For qPCRs, total RNA was isolated with peqGOLD TriFast™ (VWR, Darmstadt, Germany) and included a DNAse step. Total RNA (1-3 µg) were reverse transcribed with 150 fmol oligo(dT) primers and M-MuLV reverse transcriptase (NEB, Frankfurt, Germany) in a total volume of 45 µL. Real-time quantitative PCRs were performed using the CFX Connect Real-Time PCR Detection System (Bio-Rad, Munich, Germany). Annealing temperature was 60°C for all primers. The reactions were done as duplicates with 0.8 µL cDNA in a total volume of 10 µL using iTaq-TMUniversal SYBR Green Supermix (Bio-Rad). PCR products were quantified with the ACt-method. For normalization, the mean of the reference genes B2M, Rpl13a, Ywhaz and TBP was used. Table 2. Sequences of primers used for the quantitative real-time PCR.
RNA was isolated from the cells, reverse transcribed to cDNA, and a qRT-PCR with a fwd primer residing in exon 2 and a reverse primer in the plasmid vector (3'-untranslated region of the resulting RNA) was performed. Thus, amplification of a PCR product of 271 bp is only observed when both exons 2 and 3 are present in the mRNA.

Compound	luciferase activity ([1]; 100 µM kinetin)	splicing of the TPP1 minigene / variant (summary statement) [2]	amount of AGA mRNA products containing exon 2 [3]	luciferase activity ([1]; four concentrations 1 mM - 7.5 mM, compared to untreated cells)
c1coc(CNc2ncnc3[nH]cnc23)c1 [kinetin]	significant (about two-fold) increase in luciferase activity	no systematic positive effect	increased the amount of AGA mRNA products containing exon 2	–
Cn1c(=O)c2c(ncn2C)n(C)c1=O [caffeine, 1,3,7-trimethylxanthine]	–	–	–	dose dependent, significant (at 5 mM and 7.5 mM) increase in the luciferase activity
Cn1c(=O)c2c(ncn2CC2OCCO2)n(C)c1=O [doxofylline, 7-(1,3-dioxolan-2-ylmethyl)-1,3-dimethylpurine-2,6-dione]	–	consistently failed to exert any significant effects	–	–
